From patent publication US8440639B2, “Combination compositions for reducing intraocular pressure” (Inotek Pharmaceuticals Corporation, priority 2010, dated 2013)

Chains of the proteins cited; added tags and fusions are not shown.
UniProt P30542, whole entry: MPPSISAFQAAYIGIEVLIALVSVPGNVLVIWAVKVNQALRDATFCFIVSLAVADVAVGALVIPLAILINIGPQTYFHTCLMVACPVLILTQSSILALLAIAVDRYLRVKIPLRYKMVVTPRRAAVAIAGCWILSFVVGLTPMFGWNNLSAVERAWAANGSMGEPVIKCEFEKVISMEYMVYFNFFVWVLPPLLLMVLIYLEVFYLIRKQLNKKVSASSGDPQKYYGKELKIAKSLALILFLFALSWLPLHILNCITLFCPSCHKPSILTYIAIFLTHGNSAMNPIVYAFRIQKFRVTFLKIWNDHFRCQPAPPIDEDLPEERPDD

Molecular target: A1 receptor (Homo sapiens, UniProt P30542)
Assay: Adenosine A1 receptor affinity (Ki potency)
Type: binding
Excerpt: As used herein, the term “A1 agonist” refers to an A1 agonist that has an affinity to the A1 receptor while simultaneously having a lower affinity for the A2 and A3 adenosine receptors.

## O=[N+]([O-])OC[C@H]1O[C@@H](n2cnc3c(NC4CCCC4)ncnc32)[C@H](O)[C@@H]1O [Compound A, ((2R,3S,4R,5R)-5-(6-(cyclopentylamino)-9H-purin-9-yl)-3,4-dihydroxytetrahydrofuran-2-yl)methyl nitrate]
  Ki: 0.97 nM
